## Yeast mating assay B: variants of the scFv Ab-14

Reference: Li et al. 2023, doi:10.1038/s41467-023-39022-2. File: FLAb, binding data.

Target: peptide PDVDLGDISGINAS, taken from heptad repeat 2 (HR2) of SARS-CoV-2 spike.

The variants keep the heavy chain, the linker and the frameworks of Ab-14 (scFv order VH, three GGGGS repeats, VL).
VH: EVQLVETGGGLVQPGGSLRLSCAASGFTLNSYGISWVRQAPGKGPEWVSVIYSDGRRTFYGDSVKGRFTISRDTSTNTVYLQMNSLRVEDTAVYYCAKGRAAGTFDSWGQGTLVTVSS
VL: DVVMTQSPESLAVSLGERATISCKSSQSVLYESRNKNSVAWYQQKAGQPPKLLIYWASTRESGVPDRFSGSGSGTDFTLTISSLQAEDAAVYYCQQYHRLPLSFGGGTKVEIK

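The parent was found by panning a naive human phage display library on the peptide. Designed CDR sequences, proposed from the first random library and measured here. Their group label is 14L_En_HC (En: ensemble of fine-tuned language models; HC: hill climbing; a sequence that several methods proposed may carry one label only). The scFvs were displayed on barcoded MATa yeast, the peptide on MATalpha yeast. After mating in shaken culture at 30 °C for 16 h, diploids were selected and their barcode pairs sequenced. A regression on co-assayed BCL2-family reference pairs converts the normalised counts of each replicate to an apparent Kd. There are six technical replicates.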

Each variant is given by its three light chain CDRs, as the data file delimits them; those of the parent are KSSQSVLYESRNKNSVA, WASTRES, QQYHRLPLS.
The read-out is the apparent dissociation constant on a log10 scale (nM): the lower, the stronger.
Averages over replicates are reported, and they cover detected replicates only.
Where no diploid with the target was found in that replicate, the entry reads "n.d.": below detection, most likely a poor binder, though not proof of it.
The range of this assay differs from that of the first round, and the authors advise against merging the two.
In the paper, a design with two or fewer of six values counts as a poor binder.
Nonspecific signal, from three strains lacking the peptide, appeared in 4% of pairings of all light chain designs, centred on 2.64 (5% of these signals below 1.59); values are not corrected for it. Also given: how often the same scFv was detected with the empty control strains, with their mean in brackets.

| CDR-L1 | CDR-L2 | CDR-L3 | replicates, log10 nM | mean log10 Kd (nM) | empty controls |
|---|---|---|---|---|---|
| MMSMGFLGGMRAKNNVA | QEETREK | QQYHRLPLI | 1.07 / n.d. / 1.78 / 1.58 / 1.10 / 1.59 | 1.42 | 0 of 18 |
| KLSQLFYKESRNKNNVA | EMTTRGQ | QQYDRLPLS | 0.33 / -0.08 / -0.07 / -0.13 / -0.09 / 0.04 | 0.00 | 1 of 18 (2.59) |
| TIGQSTLMESSNRNNVA | QMSTREK | QQYDRLPLS | 0.60 / 0.67 / 0.26 / 0.65 / 0.24 / 1.30 | 0.62 | 1 of 18 (1.59) |
| KLSMMVDYHSATHSSVA | QTSTREE | QQYHRLPLS | 0.14 / 0.03 / 0.42 / 0.12 / 0.06 / 0.21 | 0.16 | 1 of 18 (2.91) |
| KLLQSVQYGSRALNSVA | QMETRED | QQYHRLPLS | 0.89 / 0.72 / 0.76 / 0.54 / 0.44 / 0.64 | 0.66 | 1 of 18 (2.18) |
| KCAQNVLIMGRGKNNVA | EMTTREE | QQYDRLPLS | 1.69 / 0.58 / 2.21 / 0.33 / 0.80 / 0.76 | 1.06 | 1 of 18 (2.54) |
| TLGDVTRMESNKKSSIA | DMSNRAE | QQYHRLPIS | n.d. / 1.06 / n.d. / n.d. / 1.23 / 0.93 | 1.07 | 0 of 18 |
| KISMLQRFQQNAKSNIA | EMNRREE | QQYHRLPLS | 0.20 / 0.50 / -0.04 / -0.06 / 0.46 / 0.40 | 0.24 | 1 of 18 (2.55) |
| MFSQTVMYESTMRNNVA | QTSTRES | QQYDLLPLS | 1.58 / 1.49 / 0.81 / 1.05 / 0.77 / 0.72 | 1.07 | 2 of 18 (3.01) |
| KLGGATRFETSNKASIA | NNSTREE | QQYHRLPLS | 0.76 / 0.63 / 0.51 / 0.30 / 0.40 / 0.36 | 0.49 | 0 of 18 |
| LISGVIDYGSRNYNSVA | QTSTRES | QQYDRLPLE | 1.29 / 1.77 / 1.45 / 2.32 / 1.77 / 1.51 | 1.69 | 1 of 18 (3.33) |
| KLGDMVHTLSRNKNSIA | DMRTRES | QQYFRLPLS | n.d. / n.d. / n.d. / n.d. / n.d. / n.d. | n.d. | 0 of 18 |
| KLYQNVGTMSHNKQSIA | DMERREE | QQYHRLPLS | 0.32 / 0.17 / -0.05 / -0.01 / 0.08 / 0.19 | 0.12 | 2 of 18 (2.71) |
| KISQSVLFWGHAINSVA | EMETREN | QQYDRLPLS | 0.91 / 0.87 / 1.11 / 0.81 / 0.99 / 1.11 | 0.97 | 0 of 18 |
| KLREVQHVETKQRNNVA | DNDTREY | QDYFRLPLS | 3.59 / 2.82 / 2.06 / 1.70 / 5.05 / 2.95 | 3.03 | 1 of 18 (3.72) |
| ILSDSVLTLSRNKNSVA | DNSTRES | QQYDRLPLS | n.d. / n.d. / 2.29 / 2.03 / 2.67 / 4.37 | 2.84 | 1 of 18 (3.31) |
| ALSQLMDMTSRNVNSVA | DLTTREN | QQYHRLPLS | 0.70 / 0.91 / 0.41 / 0.83 / 0.63 / 1.15 | 0.77 | 0 of 18 |
| MISDLTYYGSRNVNSVA | DLSTRGS | QQYDRLPLS | 0.26 / 0.84 / 0.86 / 1.06 / 1.11 / 0.56 | 0.78 | 0 of 18 |
| KIYMMTGFQSRNADSIA | DNSTRGR | QQYHRLPLS | 0.99 / 1.89 / n.d. / n.d. / n.d. / n.d. | 1.44 | 0 of 18 |
| TISQLMLYESRNKNNVA | GTSTRES | QCYMRLPLS | 0.52 / 0.10 / 0.28 / 0.02 / 0.44 / 0.44 | 0.30 | 0 of 18 |
| TISQSVLMTGLNRNSVA | QAEERIE | QQYHRLPLS | 0.61 / 0.46 / 0.03 / 0.04 / 1.24 / 0.52 | 0.48 | 1 of 18 (2.46) |
| NISESMYYQSRMKNNIA | EMSTRER | QHYHRLPLS | 0.89 / 0.93 / 0.80 / 0.83 / 1.01 / 1.03 | 0.91 | 0 of 18 |
| IISQSMLFESATHNSIA | QTSTREE | QQYHHLPLS | 0.90 / 1.57 / 1.38 / 1.35 / 1.61 / 1.56 | 1.39 | 0 of 18 |
| KFGQSVLMGSYVRNSVA | QMSTREN | QQYDRLPLS | 1.14 / 0.66 / 0.85 / 0.63 / 0.79 / 1.19 | 0.88 | 0 of 18 |
| KIYMMQGFQSRNADSIA | DNSTRGR | QQYHRLPLS | 1.61 / 1.82 / 1.20 / 1.14 / 1.59 / 1.41 | 1.46 | 1 of 18 (1.99) |
| KLRQVTGYESYLKNSVA | QTSTRAS | QDYHRLPLS | 0.99 / 1.48 / 1.25 / 0.72 / 0.98 / 0.90 | 1.05 | 0 of 18 |
| KISQMVNYETTHINAVA | QMSTREE | QQYFRLPLS | 1.15 / 1.26 / 0.83 / 1.04 / 1.29 / 1.52 | 1.18 | 0 of 18 |
| TLGDVTRMESNKKNSIA | DMSNRAD | QQYHRLPLD | 1.35 / 0.90 / 0.69 / 0.61 / 0.82 / 0.96 | 0.89 | 0 of 18 |
| TISQSAQMESHNKNSVA | DLSVRGS | QQYHRLPLS | 0.42 / 0.09 / 0.21 / 0.18 / 0.18 / 0.31 | 0.23 | 1 of 18 (2.45) |
| MFSSLMAYGSRYKNSVA | QASTRED | QQYERLPLS | n.d. / n.d. / 1.55 / 2.41 / n.d. / n.d. | 1.98 | 0 of 18 |
| IFSQSVMMGNMTRNSVA | QASTRFN | QQYHRLPLI | 2.42 / 2.83 / 2.40 / n.d. / 2.10 / 1.44 | 2.24 | 0 of 18 |
| MVGQGLMGESRAKNSIA | HASIRFD | QHYHRLPLI | n.d. / n.d. / n.d. / n.d. / n.d. / n.d. | n.d. | 0 of 18 |
| KLGQMTAIESRNLNSVA | QMDTREN | QQYDRLPLS | 1.07 / 0.93 / 1.73 / 1.02 / 1.39 / 1.08 | 1.20 | 0 of 18 |
| KLYYNVGTMSHNKQSIA | DMERRED | QQYHRLPLS | 0.38 / 0.13 / -0.18 / 0.21 / 0.14 / 0.12 | 0.13 | 0 of 18 |
| TISQSYMMENQFKNSVA | QASTRES | QCYDRLPLS | 1.63 / 0.47 / 0.75 / 0.97 / 0.93 / 1.03 | 0.96 | 2 of 18 (2.66) |
| KISMSMLMESFHKNSVA | ENSTREE | QHYHRLPLS | n.d. / n.d. / n.d. / n.d. / n.d. / n.d. | n.d. | 0 of 18 |
| KLPMATMVESVSKNNVA | ELSTRGS | QQYHRLPLS | 0.73 / 0.56 / 0.60 / 0.38 / 0.47 / 0.90 | 0.61 | 2 of 18 (3.05) |
| QLYAVNDLTSKNSQNVA | EQTTREN | QQYHRLPLS | 1.22 / 0.53 / 0.44 / 0.24 / 0.76 / 0.65 | 0.64 | 1 of 18 (2.38) |
| MISDLTMYGSRNKNSVA | DLSTRGS | QDYHRLPLS | -0.21 / -0.08 / -0.20 / -0.18 / -0.32 / -0.13 | -0.19 | 1 of 18 (2.96) |
| IITQSVMQESRNKRNVA | NTSEREP | QQYDRLPLI | 1.10 / 0.76 / 0.76 / 2.26 / 1.41 / 0.53 | 1.14 | 1 of 18 (2.41) |
| QLLMATMQGTYNRNSVA | HAETRND | QSYHRLPLS | n.d. / 2.03 / 1.11 / 2.76 / 3.49 / n.d. | 2.35 | 0 of 18 |
| TLSHSTDVESVHKNSIA | DLMTRES | QQYDRLPLS | 0.54 / 0.31 / 0.35 / 0.32 / 0.59 / 0.81 | 0.49 | 0 of 18 |
| KIAFNTLIESKNLNSVA | EMTTREY | QDYDRLPLS | n.d. / 2.20 / n.d. / n.d. / n.d. / n.d. | 2.20 | 2 of 18 (2.71) |
| KLSQVTHSESRNKNSIA | EMVTRES | QQYDRLPLS | 0.63 / 0.45 / 0.20 / 0.16 / 0.38 / 0.65 | 0.41 | 2 of 18 (3.30) |
| TLSQVHGMLSHNKNSVA | DMNTRGS | QQYDRLPLS | 0.12 / 0.06 / 0.02 / -0.12 / -0.14 / 0.06 | 0.00 | 0 of 18 |
| TMPQVWMYETKNKNNVA | EMSTRED | QQYFRLPLS | 0.63 / 0.98 / 0.82 / 0.40 / 1.05 / 0.86 | 0.79 | 1 of 18 (1.72) |
| TISNMFMMENQFKNSVA | QASTRLN | QCYDRLPLS | 2.94 / n.d. / n.d. / n.d. / n.d. / n.d. | 2.94 | 1 of 18 (3.29) |
| KLYQMTGIESHAKNSLA | DANRRES | QQYHRLPLS | 0.24 / 0.21 / 0.04 / 0.08 / 0.38 / 0.21 | 0.20 | 2 of 18 (2.74) |
| KLRQVTEYESFNKNSVA | QTETRES | QDYDRLPLS | n.d. / 2.11 / n.d. / 2.55 / 1.29 / n.d. | 1.99 | 1 of 18 (2.42) |
| KIGGVTNGISRSKNSVA | EQSTRED | QQYDRLPLA | 1.32 / 1.40 / 1.00 / 0.73 / 1.34 / 1.69 | 1.24 | 0 of 18 |
| TISQSWFIESRKKNNVA | EMTTREN | QDYDRLPLS | 0.21 / 0.73 / 0.11 / 0.44 / 0.34 / 0.46 | 0.38 | 1 of 18 (2.07) |

Top 8 of the variants detected in all replicates, tightest first:

CDR-L1,CDR-L2,CDR-L3,"replicates, log10 nM",mean log10 Kd (nM),empty controls
MISDLTMYGSRNKNSVA,DLSTRGS,QDYHRLPLS,-0.21 / -0.08 / -0.20 / -0.18 / -0.32 / -0.13,-0.19,1 of 18 (2.96)
KLSQLFYKESRNKNNVA,EMTTRGQ,QQYDRLPLS,0.33 / -0.08 / -0.07 / -0.13 / -0.09 / 0.04,0.00,1 of 18 (2.59)
TLSQVHGMLSHNKNSVA,DMNTRGS,QQYDRLPLS,0.12 / 0.06 / 0.02 / -0.12 / -0.14 / 0.06,0.00,0 of 18
KLYQNVGTMSHNKQSIA,DMERREE,QQYHRLPLS,0.32 / 0.17 / -0.05 / -0.01 / 0.08 / 0.19,0.12,2 of 18 (2.71)
KLYYNVGTMSHNKQSIA,DMERRED,QQYHRLPLS,0.38 / 0.13 / -0.18 / 0.21 / 0.14 / 0.12,0.13,0 of 18
KLSMMVDYHSATHSSVA,QTSTREE,QQYHRLPLS,0.14 / 0.03 / 0.42 / 0.12 / 0.06 / 0.21,0.16,1 of 18 (2.91)
KLYQMTGIESHAKNSLA,DANRRES,QQYHRLPLS,0.24 / 0.21 / 0.04 / 0.08 / 0.38 / 0.21,0.20,2 of 18 (2.74)
TISQSAQMESHNKNSVA,DLSVRGS,QQYHRLPLS,0.42 / 0.09 / 0.21 / 0.18 / 0.18 / 0.31,0.23,1 of 18 (2.45)